Assay results as given in patent publication US8536354B2, “Steroidal ligands and their use in gene switch modulation” (Intrexon Corporation, priority 2008, dated 2013).
pEC50: −log10 of the molar value.

Sequences of proteins named here, by UniProt entry; tags and fusion partners are left off. A line that says so, or that is headed by a name, gives the form on record, which may keep a tag or linker. Residues count along the entry.
UniProt P49881, 273-606 with tags or gaps limits assumed, stated change not applied: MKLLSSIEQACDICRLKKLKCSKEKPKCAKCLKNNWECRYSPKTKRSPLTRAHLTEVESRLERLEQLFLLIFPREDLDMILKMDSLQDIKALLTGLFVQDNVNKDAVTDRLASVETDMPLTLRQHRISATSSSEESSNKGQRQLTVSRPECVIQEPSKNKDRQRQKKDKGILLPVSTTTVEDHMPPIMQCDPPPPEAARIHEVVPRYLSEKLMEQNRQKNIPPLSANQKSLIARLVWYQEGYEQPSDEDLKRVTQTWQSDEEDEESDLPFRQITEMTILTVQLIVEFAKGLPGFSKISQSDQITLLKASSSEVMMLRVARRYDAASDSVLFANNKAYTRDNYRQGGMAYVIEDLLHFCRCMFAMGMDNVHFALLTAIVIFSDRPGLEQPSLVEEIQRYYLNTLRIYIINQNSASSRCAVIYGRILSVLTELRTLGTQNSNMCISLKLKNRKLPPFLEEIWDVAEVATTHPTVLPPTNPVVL

Target: BmEcR (GAL4-EcR DEF with VP16-RXR-USP chimera) (Bombyx mori, UniProt P49881)
Experiment: Two-hybrid gene switch assay, luciferase reporter, BmEcR, mouse NIH3T3 cells
Assay type: cell-based

| Structure (SMILES) | pEC50 (FIG. 15, GAL4-EcR (DEF) / VP16-RXR-USP chimera) | pEC50 (FIG. 13A/13B, GAL4-EcR(DEF) with VP16-RXR-USP chimera) |
| --- | --- | --- |
| CC(C)CC[C@@H](O)[C@](C)(O)[C@H]1CC[C@@]2(O)C3=CC(=O)[C@@H]4C[C@@H](O)[C@@H](O)C[C@]4(C)[C@H]3CC[C@]12C | 6.47 | – |
| C[C@@H]1C(=O)O[C@H](C)[C@H]1C[C@@H](O)[C@](C)(O)[C@H]1CC[C@@]2(O)C3=CC(=O)[C@@H]4C[C@@H](O)[C@@H](O)C[C@]4(C)[C@H]3CC[C@]12C [cyasterone] | – | 6.00 |
